# Laboratory results published in patent US6383734.
# Biological target: recombinant His-tagged mouse PAK3 from Sf9 cells (UniProt Q61036)
substance,measurement,value
GST-Rac1 charged with GTPγS,stimulation of the Raf-1 peptide and Raf-CR3 serine 338/339 kinase activity of PAK3,stimulated up to six-fold by co-incubation with GST-Rac-GTPγS or GST-Cdc42-GTPγS
